Data as given in US20240165145A1, “COMPOSITIONS AND METHODS FOR TREATING CANCER AND BIOMARKERS TO DETECT CANCER STEM CELL REPROGRAMMING AND PROGRESSION” (The Regents of the University of California, priority 2016, published 2024).

The chains behind the UniProt entries cited, without tags or fusion partners. Where a name states a change or a piece, a line headed by the entry shows the natural chain unless it says otherwise.
UniProt O60674: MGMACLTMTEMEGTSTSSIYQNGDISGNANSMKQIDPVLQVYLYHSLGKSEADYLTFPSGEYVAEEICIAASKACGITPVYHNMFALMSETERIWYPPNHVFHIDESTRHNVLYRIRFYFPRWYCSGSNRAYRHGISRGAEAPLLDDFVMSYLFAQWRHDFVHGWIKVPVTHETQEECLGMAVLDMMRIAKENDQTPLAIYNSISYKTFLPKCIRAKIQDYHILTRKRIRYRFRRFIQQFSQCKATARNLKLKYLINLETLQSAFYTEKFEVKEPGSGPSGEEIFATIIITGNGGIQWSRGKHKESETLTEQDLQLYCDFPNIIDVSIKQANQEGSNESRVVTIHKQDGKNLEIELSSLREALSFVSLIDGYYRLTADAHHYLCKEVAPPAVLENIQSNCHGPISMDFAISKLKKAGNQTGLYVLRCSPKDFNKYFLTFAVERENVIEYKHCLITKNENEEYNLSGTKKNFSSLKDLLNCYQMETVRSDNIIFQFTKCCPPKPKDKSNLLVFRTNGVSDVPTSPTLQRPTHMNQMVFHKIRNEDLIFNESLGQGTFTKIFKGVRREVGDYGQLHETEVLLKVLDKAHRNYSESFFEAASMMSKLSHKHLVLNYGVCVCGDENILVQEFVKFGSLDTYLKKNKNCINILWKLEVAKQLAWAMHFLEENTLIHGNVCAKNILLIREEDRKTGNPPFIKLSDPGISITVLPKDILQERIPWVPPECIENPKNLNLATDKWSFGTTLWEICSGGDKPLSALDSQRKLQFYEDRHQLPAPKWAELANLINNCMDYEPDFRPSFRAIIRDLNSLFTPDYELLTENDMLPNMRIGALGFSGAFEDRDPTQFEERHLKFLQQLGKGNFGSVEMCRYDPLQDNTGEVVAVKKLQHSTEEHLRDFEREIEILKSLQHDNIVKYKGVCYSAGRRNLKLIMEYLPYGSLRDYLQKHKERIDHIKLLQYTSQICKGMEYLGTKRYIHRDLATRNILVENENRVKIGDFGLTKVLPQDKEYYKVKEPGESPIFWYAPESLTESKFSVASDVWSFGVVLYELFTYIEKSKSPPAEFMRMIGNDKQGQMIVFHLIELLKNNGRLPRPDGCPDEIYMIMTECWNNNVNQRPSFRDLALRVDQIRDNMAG

Molecular target: JAK2 (Homo sapiens, UniProt O60674)
Test: Nanoproteomic analysis of p-JAK2, p-CRKL and p-STAT5a in BC progenitors isolated from treated mice
Conditions: splenic and bone marrow niches of treated mice; 2-day treatment

For `Cc1cnc(Nc2ccc(OCCN3CCCC3)cc2)nc1Nc1cccc(S(=O)(=O)NC(C)(C)C)c1` [SAR302503, N-tert-Butyl-3-{5-methyl-2-[4-(2-pyrrolidin-1-yl-ethoxy)-phenylamino]-pyrimidin-4-ylamino}-benzenesulfonamide], the “JAK2 inhibition by p-JAK2, p-CRKL and p-STAT5a levels in BC progenitors” value was “Selective JAK2 inhibition”.
